Results published in patent US11780840B2 (Incyte Corporation, priority 2020, dated 2023).

Amino acid sequences for entries named in this document (tags omitted). A change or cut given only in a name is not applied to a line headed by its entry. Residues count along the entry.
UniProt O60674, 826-1132 limits assumed: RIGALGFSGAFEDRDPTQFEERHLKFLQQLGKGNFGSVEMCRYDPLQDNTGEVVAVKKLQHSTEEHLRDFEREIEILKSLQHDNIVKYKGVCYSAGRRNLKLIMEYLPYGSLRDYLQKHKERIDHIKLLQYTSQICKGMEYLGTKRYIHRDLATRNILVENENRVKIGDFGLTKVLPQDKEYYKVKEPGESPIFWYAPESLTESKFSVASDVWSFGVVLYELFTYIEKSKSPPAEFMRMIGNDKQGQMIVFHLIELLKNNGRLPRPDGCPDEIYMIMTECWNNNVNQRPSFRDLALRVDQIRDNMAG
UniProt O60674, 536-812 W659A/W777A/F794H limits assumed: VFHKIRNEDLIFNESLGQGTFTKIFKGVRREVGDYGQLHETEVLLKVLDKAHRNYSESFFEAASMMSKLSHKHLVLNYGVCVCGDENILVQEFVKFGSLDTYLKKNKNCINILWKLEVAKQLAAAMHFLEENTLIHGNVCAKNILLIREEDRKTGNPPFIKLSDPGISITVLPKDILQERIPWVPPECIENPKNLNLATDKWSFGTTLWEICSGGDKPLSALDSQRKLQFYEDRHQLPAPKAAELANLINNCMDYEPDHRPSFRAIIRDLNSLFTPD
UniProt O60674, 536-812 V617F/W659A/W777A/F794H limits assumed: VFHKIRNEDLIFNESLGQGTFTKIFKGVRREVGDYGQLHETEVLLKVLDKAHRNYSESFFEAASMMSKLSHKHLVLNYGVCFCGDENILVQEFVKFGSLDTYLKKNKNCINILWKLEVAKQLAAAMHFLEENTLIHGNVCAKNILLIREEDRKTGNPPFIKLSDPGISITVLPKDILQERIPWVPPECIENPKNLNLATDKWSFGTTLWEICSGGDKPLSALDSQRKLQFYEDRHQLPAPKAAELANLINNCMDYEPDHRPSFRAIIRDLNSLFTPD

How the values were obtained:
[1] = biological target: catalytic domain (JH1, amino acids 826-1132) of human JAK2 (Homo sapiens, UniProt O60674); assay: JAK2 LanthaScreen JH1 Binding Assay; conditions: read-out: JH1 BIND; JAK2 JH1 (1.5 nM), 50 nM fluorescent JAK2-JH1 tracer, 2 hours at 25° C.
Procedure: Example A. JAK2 LanthaScreen JH1 Binding Assay
JAK2 JH1 binding assay utilizes catalytic domain (JH1, amino acids 826-1132) of human JAK2 expressed as N-terminal FLAG-tagged, biotinylated protein in a baculovirus expression system (Carna Biosciences, Product #08-445-20N). The assay was conducted in black 384-well polystyrene plates in a final reaction volume of 20 μL. JAK2 JH1 (1.5 nM) was incubated with compounds (100 nL serially diluted in DMSO) in the presence of 50 nM fluorescent JAK2-JH1 tracer and 0.5 nM Streptavidin-Tb cryptate (Cisbio Part #610SATLB) in assay buffer (50 mM Tris, pH=7.5, 10 mM MgCl2, 0.01% Brij-35, 0.1% BSA, 1 mM EGTA, 5% Glycerol and 5 mM DTT). Non-specific binding was accessed in the presence of 2 mM ATP. After incubation for 2 hours at 25° C., LanthaScreen signals were read on a PHERAstar FS plate reader (BMG LABTECH). Data was analyzed with IDBS XLfit and GraphPad Prism 5.0 software using a four parameter dose response curve to determine IC50 for each compound.

[2] = biological target: pseudo-kinase domain (JH2, amino-acids 536-812 with 3 surface mutations W659A, W777A, F794H) of human V617F mutant JAK2 (Homo sapiens, UniProt O60674, F794H/V617F/W659A/W777A); assay: JAK2 LanthaScreen JH2-V617F Binding Assay; conditions: read-out: JH2 BIND V617F; JAK2 JH2-V617F (0.26 nM), 50 nM Fluorescent JAK2-JH2 Tracer, 1 hour at 25° C.
Procedure: Example C. JAK2 LanthaScreen JH2-V617F Binding Assay
(§1) JAK2 JH2-V617F binding assay utilizes pseudo-kinase domain (JH2, amino-acids 536-812 with 3 surface mutations W659A, W777A, F794H) of human V617F mutant JAK2 expressed as C-terminal His-Avi-tagged, biotinylated protein in a baculovirus expression system (BPS Bioscience, Catalog #79498). The assay was conducted in black 384-well polystyrene plates in a final reaction volume of 20 μL. JAK2 JH2-V617F (0.26 nM) was incubated with compounds (100 nL serially diluted in DMSO) in the presence of 50 nM Fluorescent JAK2-JH2 Tracer (MedChem Express Catalog #HY-102055) and 0.25 nM Streptavidin-Tb cryptate (Cisbio Part #610SATLB) in assay buffer (50 mM Tris, pH=7.5, 10 mM MgCl2, 0.01% Brij-35, 0.1% BSA, 1 mM EGTA, 5% Glycerol and 5 mM DTT). Non-specific binding was accessed in the presence of 2 mM ATP. After incubation for 1 hour at 25° C., LanthaScreen signals were read on a PHERAstar FS plate reader (BMG LABTECH). Data was analyzed with IDBS XLfit and GraphPad Prism 5.0 software using a four parameter dose response curve to determine IC50 for each compound.

[3] = biological target: pseudo-kinase domain (JH2, amino-acids 536-812 with 3 surface mutations W659A, W777A, F794H) of human Wild Type JAK2 (Homo sapiens, UniProt O60674, F794H/W659A/W777A); assay: JAK2 LanthaScreen JH2-WT Binding Assay; conditions: read-out: JH2 BIND WT; JAK2 JH2-WT (0.145 nM), 50 nM Fluorescent JAK2-JH2 Tracer, 1 hour at 25° C.
Procedure: Example B. JAK2 LanthaScreen JH2-WT Binding Assay
as §1, with “JH2-WT” for “JH2-V617F”, “Wild Type” for “V617F mutant”, “#79463).” for “#79498).”, “JH2-WT (0.145” for “JH2-V617F (0.26”

SMILES: COC(=O)N1C2CCC1CC(n1c(=O)n(C)c3cnc4[nH]c(-c5cnn(C)c5)c(-c5ccc6c(cnn6C)c5)c4c31)C2 (stereo not drawn)
- IC50 [1]: > 1 µM
- IC50 [2]: < 0.01 µM
- IC50 [3]: < 0.01 µM
